PABP1 MLLE inh: inhibitors of PABP1 MLLE–PAM2 peptide binding, primary screen, biochemical, fluorescence polarization, FITC-PAM2, GST-MLLE; inhibition, % at 20 µM; actives 0.36% (n = 360,000); AID 588489, 2011; in the data active = inhibition above about 35%, passing the limit was not always enough;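 note: plate controls were DMSO wells with GST-MLLE for no effect and wells lacking GST-MLLE protein for full effect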
PABP FP inh: PABP poly(A) RNA binding inhibitors, primary screen, biochemical, fluorescence polarization, uHTS. Polyadenylate-binding protein 1 (Homo sapiens), P11940. calls only at 35 µM. actives 1% (n = 290,000);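 note: calls also rest on retests at 20 µM and on dose response follow-up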
Pemphigus Ab inh: inhibitors of pemphigus antibody binding to DSG3, primary screen, biochemical, bead-based, flow cytometry, scFv-GFP; AID 588358, 2011; DSG3-coupled beads, scFv-anti-DSG3-GFP binding; hits give low values; binding (percent of control), % at 10 µM; Desmoglein-3 (Homo sapiens), P32926; actives 0.48% (n = 310,000);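 active = binding more than 3 SD below its plate's average and above zero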;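 note: hits lower antibody fragment binding to DSG3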
Yeast UUG start: yeast start codon fidelity modulation; AID 602363; activity score, % at 18.7 µM; S. cerevisiae UUG-firefly luciferase reporter, luminescence/redox ratio; 0.13% of 350,000 active;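 active means replicate mean at a twofold rise or more, about +100% in these data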;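 further: firefly luciferase made from a UUG start codon reports start codon fidelity; reporter light over untreated wells divided by growth signal over untreated wells; some hits fall short of that in this replicate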
eIF4H FP inh: human eIF4H binding inhibitors, primary screen, translation initiation inhibitor project, biochemical, uHTS, fluorescence polarization | inhibition, % at 35 µM | eIF4H fluorescence polarization binding assay | actives 0.94% (n = 290,000) | Eukaryotic translation initiation factor 4H (Homo sapiens), Q15056;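 note: calls also rest on retests at 20 µM and on dose response follow-up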
An asterisk follows results filed as active. Most compounds without a hit are left out; they make up all but 1.5% or so of the library. Unless noted, the rule behind the calls is not given here.

Amino acid sequences for entries named in this document (tags omitted).
Polyadenylate-binding protein 1 (Homo sapiens), P11940, UniProt P11940, whole entry, looked up: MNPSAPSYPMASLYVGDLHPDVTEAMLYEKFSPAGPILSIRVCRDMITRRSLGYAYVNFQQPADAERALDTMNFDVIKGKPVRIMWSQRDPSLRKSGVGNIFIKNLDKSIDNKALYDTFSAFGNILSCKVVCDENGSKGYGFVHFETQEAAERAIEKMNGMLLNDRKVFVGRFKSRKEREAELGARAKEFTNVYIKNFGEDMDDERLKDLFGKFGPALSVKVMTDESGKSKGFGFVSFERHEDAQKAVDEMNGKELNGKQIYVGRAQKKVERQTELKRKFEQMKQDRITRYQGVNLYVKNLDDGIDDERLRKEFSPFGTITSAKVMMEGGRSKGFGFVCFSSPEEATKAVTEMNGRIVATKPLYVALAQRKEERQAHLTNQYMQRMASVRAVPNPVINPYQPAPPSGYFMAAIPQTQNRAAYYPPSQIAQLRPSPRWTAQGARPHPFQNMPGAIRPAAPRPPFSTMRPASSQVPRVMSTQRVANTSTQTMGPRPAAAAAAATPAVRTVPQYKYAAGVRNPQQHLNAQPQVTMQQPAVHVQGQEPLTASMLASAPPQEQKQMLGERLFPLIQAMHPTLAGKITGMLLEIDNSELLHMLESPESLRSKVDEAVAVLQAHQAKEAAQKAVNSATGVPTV
Desmoglein-3 (Homo sapiens), P32926, UniProt P32926, whole entry, looked up: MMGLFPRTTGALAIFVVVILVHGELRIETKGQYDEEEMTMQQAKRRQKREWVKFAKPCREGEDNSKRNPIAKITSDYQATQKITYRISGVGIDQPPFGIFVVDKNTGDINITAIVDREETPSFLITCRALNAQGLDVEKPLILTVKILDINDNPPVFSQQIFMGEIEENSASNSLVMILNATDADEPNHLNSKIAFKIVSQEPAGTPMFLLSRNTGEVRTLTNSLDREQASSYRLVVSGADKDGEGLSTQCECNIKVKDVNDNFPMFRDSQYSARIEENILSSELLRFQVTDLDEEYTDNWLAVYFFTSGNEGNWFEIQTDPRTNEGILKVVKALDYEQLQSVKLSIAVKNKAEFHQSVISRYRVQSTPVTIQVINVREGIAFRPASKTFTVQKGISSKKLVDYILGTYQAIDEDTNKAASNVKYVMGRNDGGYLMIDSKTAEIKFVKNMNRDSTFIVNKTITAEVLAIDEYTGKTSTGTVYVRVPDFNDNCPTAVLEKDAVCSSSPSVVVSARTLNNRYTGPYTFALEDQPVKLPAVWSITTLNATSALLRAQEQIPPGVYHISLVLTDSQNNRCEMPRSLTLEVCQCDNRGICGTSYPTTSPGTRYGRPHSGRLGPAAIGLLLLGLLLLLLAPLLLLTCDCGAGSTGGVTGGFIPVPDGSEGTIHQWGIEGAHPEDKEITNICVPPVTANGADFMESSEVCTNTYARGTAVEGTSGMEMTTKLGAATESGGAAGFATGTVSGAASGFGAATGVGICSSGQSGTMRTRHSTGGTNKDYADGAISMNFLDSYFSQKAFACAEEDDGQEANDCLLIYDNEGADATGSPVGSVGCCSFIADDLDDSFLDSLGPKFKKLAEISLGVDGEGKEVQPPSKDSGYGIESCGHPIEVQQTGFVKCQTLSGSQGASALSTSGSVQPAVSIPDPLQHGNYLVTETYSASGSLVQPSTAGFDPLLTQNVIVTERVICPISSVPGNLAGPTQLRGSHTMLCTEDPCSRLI

For CN1CCc2c(sc(/N=C/c3ccco3)c2C(N)=O)C1 the results were PABP1 MLLE inh 3, PABP FP inh active, Yeast UUG start -8 and eIF4H FP inh 68*.
`CO[C@@H]1CN(C)C(=O)c2cc(NC(=O)C3CC3)ccc2OC[C@H](C)N(Cc2ccccc2)C[C@@H]1C` gave Yeast UUG start -4.
For CC1CC(C)(C)NC(=S)S1 (configuration not stated) the results were PABP1 MLLE inh 41*, PABP FP inh inactive, Pemphigus Ab inh 79, Yeast UUG start 11 and eIF4H FP inh -4.
For C[C@@H]1CN([C@@H](C)CO)C(=O)Cc2cc(NC(=O)CCCCCC(=O)Nc3ccccc3N)ccc2O[C@@H]1CN(C)S(=O)(=O)c1cn(C)cn1 the results were Yeast UUG start 4.
CN1C(=O)C2(c3ccccc31)C1CCCC=C1C(C#N)=C(N)C2(C#N)C#N (configuration not stated) was read as PABP1 MLLE inh -8, PABP FP inh active, Pemphigus Ab inh 96, Yeast UUG start -6 and eIF4H FP inh 44*.
For O=C(O)c1ccc2c(c1)C(=O)/C(=C/c1ccccc1)C2=O the results were PABP1 MLLE inh 40*, PABP FP inh inactive, Pemphigus Ab inh 101, Yeast UUG start 4 and eIF4H FP inh 83.
Screening Cc1ccccc1NC(=O)Cn1nc(-c2ccccc2)nc1-c1ccccc1 returned PABP1 MLLE inh -1, PABP FP inh inactive, Pemphigus Ab inh -17*, Yeast UUG start -9 and eIF4H FP inh 0.
O=C(O)c1ccc(/C=N/NC(=O)c2ccc(CN3c4cccc5cccc(c45)S3(=O)=O)cc2)cc1 was read as PABP1 MLLE inh -8, PABP FP inh inactive, Pemphigus Ab inh 92 and eIF4H FP inh 59*.
For CCOCCCNC(=S)N1CCC(NC(=O)c2ccco2)CC1 the results were PABP1 MLLE inh -23, PABP FP inh active, Yeast UUG start -22 and eIF4H FP inh -8.
Screening C[C@@H]1CN([C@@H](C)CO)S(=O)(=O)c2ccc(-c3ccc(F)cc3)cc2O[C@@H]1CN(C)S(C)(=O)=O returned Yeast UUG start 2.
`COc1ccc2c(C)cc(SCC(=O)N3CCOCC3)nc2c1` gave PABP1 MLLE inh -86, PABP FP inh active, Pemphigus Ab inh 190, Yeast UUG start -9 and eIF4H FP inh 124*.
`COc1ccc2c(-c3ccccc3)cc(SCC(N)=O)nc2c1` gave PABP1 MLLE inh -77, PABP FP inh active, Pemphigus Ab inh 189, Yeast UUG start -13 and eIF4H FP inh 80*.
For C[C@@H]1CN([C@H](C)CO)S(=O)(=O)c2ccc(-c3ccc(C#N)cc3)cc2O[C@H]1CN(C)C the results were Yeast UUG start -7.
`CSCCOC(=O)c1[nH]c2c(c1C)C(=O)CC(c1ccco1)C2` (configuration not stated) gave PABP1 MLLE inh -8, PABP FP inh inactive, Pemphigus Ab inh 107, Yeast UUG start -19 and eIF4H FP inh 90.
For COCCOC(=O)c1[nH]c2c(c1C)C(=O)CC(c1ccco1)C2 (configuration not stated) the results were PABP1 MLLE inh 7, PABP FP inh inactive, Pemphigus Ab inh 109, Yeast UUG start -9 and eIF4H FP inh 84*.
Cc1c(C(=O)OCc2ccccc2)[nH]c2c1C(=O)CC(c1ccco1)C2 (configuration not stated) was read as PABP1 MLLE inh 8, PABP FP inh active, Pemphigus Ab inh 112, Yeast UUG start -11 and eIF4H FP inh 81.
Screening CCOC(=O)c1[nH]c2c(c1C)C(=O)CC(c1ccco1)C2 (configuration not stated) returned PABP1 MLLE inh -14, PABP FP inh active, Pemphigus Ab inh 108, Yeast UUG start -13 and eIF4H FP inh 99*.
COCCOC(=O)c1[nH]c2c(c1C)C(=O)CC(c1ccccc1)C2 (configuration not stated) was read as PABP1 MLLE inh 11, PABP FP inh inactive, Pemphigus Ab inh 112, Yeast UUG start -8 and eIF4H FP inh -5.
Screening Cc1c(C(=O)OCCOC(C)C)[nH]c2c1C(=O)CC(c1ccco1)C2 (configuration not stated) returned PABP1 MLLE inh -4, PABP FP inh inactive, Pemphigus Ab inh 111, Yeast UUG start 4 and eIF4H FP inh 59*.
`CNC(=O)C[C@H]1CC[C@@H]2[C@H](COC[C@H](O)CN2C(=O)Nc2cccc(OC)c2)O1` gave Yeast UUG start -3.
COc1ccc(CN(C)C[C@H]2Oc3c(NS(=O)(=O)c4c(C)noc4C)cccc3C(=O)N([C@H](C)CO)C[C@H]2C)cc1 was read as Yeast UUG start -12.
For C[C@H]1CN([C@@H](C)CO)S(=O)(=O)c2ccc(-c3cncnc3)cc2O[C@@H]1CN(C)C(=O)Cc1ccccc1 the results were Yeast UUG start -11.
`COc1ccc(C2(c3ccc(OC)cc3)NC(=O)N(CC(=O)Nc3ccc(N4CCOCC4)cc3)C2=O)cc1` gave PABP1 MLLE inh -12 and Pemphigus Ab inh 3.0*.
Screening CCc1ccc(OCC(=O)Nc2ccc(N3CCN(C(=O)c4ccccc4)CC3)cc2)cc1 returned PABP1 MLLE inh 11, PABP FP inh inactive, Pemphigus Ab inh 95*, Yeast UUG start 0 and eIF4H FP inh -5.
For COc1ccc(NC(=O)c2ccc(CN3CCN(c4ccccc4)CC3)cc2)cc1 the results were PABP1 MLLE inh 0, PABP FP inh inactive, Yeast UUG start 4 and eIF4H FP inh 3.
Screening COc1ccc(NC(=O)c2ccc(NC(=O)CN3CCN(c4ccccc4)CC3)cc2)cc1 returned PABP1 MLLE inh 6, Pemphigus Ab inh 5.2* and Yeast UUG start -15.
For COc1cccc(C(=O)Nc2ccc(NC(=O)Cc3ccccc3)cc2)c1 the results were PABP1 MLLE inh 14, PABP FP inh inactive, Pemphigus Ab inh 92*, Yeast UUG start 10 and eIF4H FP inh -4.
For O=C(CN1C(=O)NC(c2ccccc2)(c2ccccc2)C1=O)Nc1ccc(N2CCOCC2)cc1 the results were PABP1 MLLE inh -13, Pemphigus Ab inh 124 and Yeast UUG start 5.
For COc1cccc(C(=O)Nc2ccccc2)c1 the results were PABP1 MLLE inh 8, PABP FP inh inactive, Pemphigus Ab inh 102 and eIF4H FP inh -2.
Cc1ccc(NC(=O)CN2C(=O)S/C(=C\c3cccn3-c3cccc(C(=O)O)c3)C2=O)c(C)c1 was read as PABP1 MLLE inh 7, PABP FP inh active, Pemphigus Ab inh 135, Yeast UUG start -18 and eIF4H FP inh 91*.

Three compounds already listed, ordered by heavy-atom count, falling.
O=C(O)c1ccc(/C=N/NC(=O)c2ccc(CN3c4cccc5cccc(c45)S3(=O)=O)cc2)cc1 was read as PABP1 MLLE inh -8, PABP FP inh inactive, Pemphigus Ab inh 92 and eIF4H FP inh 59*.
CN1C(=O)C2(c3ccccc31)C1CCCC=C1C(C#N)=C(N)C2(C#N)C#N (configuration not stated) was read as PABP1 MLLE inh -8, PABP FP inh active, Pemphigus Ab inh 96, Yeast UUG start -6 and eIF4H FP inh 44*.
For COc1cccc(C(=O)Nc2ccccc2)c1 the results were PABP1 MLLE inh 8, PABP FP inh inactive, Pemphigus Ab inh 102 and eIF4H FP inh -2.

High-throughput results as filed in PubChem.
